The values below come from PMC8317666, “Combining flavin photocatalysis with parallel synthesis: a general platform to optimize peptides with non-proteinogenic amino acids” (Chemical Science, 2021).

The assay concerns the target Thrombin (Homo sapiens, UniProt P00734). The assay is described as follows: Thrombin inhibition assay (Sigma Thrombin Inhibitor Screening Kit MAK243). To be noted: 80 μM peptide (screening grade, mixture of diastereomers), 15 min preincubation with thrombin at room temperature, AMC-based peptide substrate, 37 °C, 30 min incubation, fluorescence Ex/Em 350/450 nm, 384-well; replicate 1 of 2.

As for PPACK [reference compound], the “Percent thrombin inhibition, 1st run” value is on record as 100%.
